Earlier results on one substance are cited in patent publication US8013123B2, “Use of precursors of enkephalins and/or their fragments in medical diagnostics” (B.R.A.H.M.S. GmbH, priority 2004, dated 2011).

By UniProt entry, the sequences of proteins in these tests, tags left out. Where a name states a change or a piece, a line headed by the entry shows the natural chain unless it says otherwise.
UniProt P01210: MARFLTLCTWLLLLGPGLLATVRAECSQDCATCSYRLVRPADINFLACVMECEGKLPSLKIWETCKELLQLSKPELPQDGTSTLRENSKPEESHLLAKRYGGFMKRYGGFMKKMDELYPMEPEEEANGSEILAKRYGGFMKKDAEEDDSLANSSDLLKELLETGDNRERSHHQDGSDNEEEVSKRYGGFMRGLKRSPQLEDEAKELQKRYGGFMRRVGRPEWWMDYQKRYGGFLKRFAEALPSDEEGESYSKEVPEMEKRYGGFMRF

This series deals with T-helper and cytotoxic T-cells. The note with it: cited from earlier work.

As for “leucine enkephalin (YGGFL; Leu-enkephalin; UniProt P01210 230-234, looked up)”, the proliferation entry is listed as “the proliferation”.
